Consider 1 substance from patent US5990275.

For the test, the target named is TAG-72 on bovine submaxillary mucin (bovine). Put plainly: competition ELISA against biotin-labeled CC49 IgG. For orientation: In an ELISA, binding on a coated surface is turned into a signal by an enzyme label.

Consider “CC49/4-4-20 heterodimer Fv (fraction 5) (bispecific antibody)”, for which the fold higher protein concentration needed to displace the IgG than the CC49/212 single-chain Fv is 200 fold.
